## AlphaSeq binding of Ab-14 light chain variants to a spike HR2 peptide

Binding partner: SARS-CoV-2 spike HR2 peptide, sequence PDVDLGDISGINAS.

Parent scFv Ab-14: VH joined to VL by three GGGGS repeats. Changes lie in the light chain CDRs alone.
VH: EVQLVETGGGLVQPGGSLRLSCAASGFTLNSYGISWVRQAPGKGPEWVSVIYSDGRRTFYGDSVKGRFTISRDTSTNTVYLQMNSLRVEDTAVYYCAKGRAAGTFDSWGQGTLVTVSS
VL: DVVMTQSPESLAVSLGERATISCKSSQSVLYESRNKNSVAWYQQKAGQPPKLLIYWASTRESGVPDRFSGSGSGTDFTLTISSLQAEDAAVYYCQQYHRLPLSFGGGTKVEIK

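The parent was found by panning a naive human phage display library on the peptide. Designed CDR sequences, proposed from the first random library and measured here. Their group label is 14L_GP_Gibbs (GP: Gaussian process model; Gibbs: Gibbs sampling; a sequence that several methods proposed may carry one label only). The scFvs were displayed on barcoded MATa yeast, the peptide on MATalpha yeast. The frequency of each diploid, read from paired DNA barcodes, reflects how well the two displayed proteins bind. A regression on co-assayed BCL2-family reference pairs converts the normalised counts of each replicate to an apparent Kd. The assay was run in six technical replicates.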

Variants are written as CDR1, CDR2 and CDR3 of the light chain (limits as in the source). Parent: KSSQSVLYESRNKNSVA, WASTRES, QQYHRLPLS. The read-out is the apparent dissociation constant on a log10 scale (nM): the lower, the stronger. Replicates are averaged; those with no signal do not enter the mean. The range of this assay differs from that of the first round, and the authors advise against merging the two.

| CDR-L1 | CDR-L2 | CDR-L3 | replicates, log10 nM | mean, log10 nM | control signals |
|---|---|---|---|---|---|
| KLSQSVELQSRNKNAVA | SASTRES | QQYHRLPLS | 0.40 0.20 0.38 0.07 0.25 0.34 | 0.27 | 1 of 18 (3.21) |
| KFSPSFLYWSRNSNAVA | EASTRES | QDYHRLPLS | 0.48 0.50 0.19 0.24 0.23 0.44 | 0.35 | 1 of 18 (2.75) |
| KLSQSVGYQSRNKWNVA | NASTRES | QQYHRLPLS | 0.23 0.20 -0.06 0.19 0.11 0.29 | 0.16 | 2 of 18 (2.57) |
| KLSQWYWYESRNKNSVA | NASTREV | QQYWRLPLS | 0.91 0.73 0.47 0.48 0.54 0.49 | 0.60 | 3 of 18 (2.91) |
| IISQSMLYESRNKNSVA | NASTRWS | QQYHRLPLS | 0.54 0.51 0.16 0.23 1.02 0.32 | 0.46 | 0 of 18 |
| KSSGSVLYEDRMVNSVA | NASQREE | QQYHRLPLS | 0.32 0.30 0.32 0.06 0.46 0.44 | 0.32 | 0 of 18 |
| KMQGSVMMLSRNDNSVA | QASTREE | QQYHRLPLS | 0.31 0.07 0.20 -0.06 0.25 0.06 | 0.14 | 0 of 18 |
| KISQSALMESRNKNSVA | NASKRES | QQYHRLPLS | -0.03 -0.13 -0.19 -0.24 -0.13 -0.18 | -0.15 | 2 of 18 (2.99) |
| KMSQEAMMLSRNPNSVA | QASTREQ | QQYHRLPLS | -0.24 -0.08 -0.39 -0.31 -0.29 -0.24 | -0.26 | 2 of 18 (2.54) |
| KFEWSNPYESRNKNSVA | NASTRES | QQYWRLPLS | 0.33 0.59 0.38 0.25 0.75 0.75 | 0.51 | 0 of 18 |
| KLSQSQEYESRNSNSVA | NASTRET | QQYHRLPLE | 1.67 1.01 1.72 1.66 0.69 1.22 | 1.33 | 0 of 18 |
| KLQQSVLYSSRNKNSVA | NASTRES | QQYHRLPLS | -0.04 -0.16 -0.28 -0.29 -0.27 0.00 | -0.18 | 0 of 18 |
| KVFPSGGGLSRNKNSVA | DASTRES | QQYHRLPLS | 0.29 0.58 0.09 0.16 0.33 0.39 | 0.31 | 0 of 18 |
| KSAFSDLNESRNKNSVA | DASTRES | QQYHRLPLS | -0.42 -0.42 -0.75 -0.69 -0.55 -0.38 | -0.54 | 0 of 18 |
| KFQGMVMMGDRNKNSVA | WASTRLQ | QQYHRLPLS | 0.98 0.37 0.76 0.84 0.99 0.89 | 0.81 | 0 of 18 |
| KLSQSMLYESRNVNNVA | QASTRES | QQYHRLPLM | -0.38 -0.44 -0.64 -0.85 -0.55 -0.53 | -0.56 | 1 of 18 (2.40) |
| KLSASQLYQSRNSNAVA | NASTRMM | QQYHRLPLS | -0.03 -0.16 -0.23 -0.42 -0.35 -0.22 | -0.24 | 0 of 18 |
| KLPQKYNYESRNKNNVA | SASCRES | QQYHRLPLS | 0.35 0.59 0.05 0.42 0.31 0.40 | 0.35 | 0 of 18 |
| KVQQWQLYESRMKNAVA | NASTRCD | QQYHRLPLS | 0.51 0.25 0.25 0.18 0.15 0.47 | 0.30 | 1 of 18 (1.82) |
| KCSQSVWQEERQKNSVA | NASQRLQ | QQYHRLPLS | 0.75 1.11 0.83 0.79 0.53 0.83 | 0.81 | 0 of 18 |
| KLQQSMEYESRWHNSVA | HASVRCD | QQYHRLPLS | 0.54 0.71 0.59 0.66 0.69 0.42 | 0.60 | 2 of 18 (3.04) |
| KQSQSELYGSRNKNSVA | DASQRED | QDYHRLPLS | 0.42 0.19 -0.02 -0.06 0.03 0.43 | 0.17 | 2 of 18 (3.17) |
| KLSPSVLGMWRNSNSVA | NASTRES | QQYHRLPLS | 0.15 -0.07 -0.09 -0.28 -0.14 0.33 | -0.02 | 0 of 18 |
| KQSYGQDYSSRNDNSVA | DASTRES | QQYHRLPLS | 0.31 0.53 0.30 0.16 0.33 0.41 | 0.34 | 0 of 18 |
| KVSMLHWYWSRNKNSVA | EASTREQ | QQYHRLPLS | 0.87 0.59 0.98 1.01 1.24 1.05 | 0.95 | 1 of 18 (3.64) |
| KLSSSWLYEQRNVNSVA | QASQRLR | QQYHRLPLS | 0.42 0.48 0.37 0.19 0.73 1.02 | 0.53 | 0 of 18 |
| KFSQGYMYEQRNKNSVA | NASQRES | QQYHRLPLS | 0.19 -0.21 -0.24 -0.23 -0.20 0.03 | -0.11 | 2 of 18 (2.76) |
| KMQQSYLMESRNCNSVA | NASTRLW | QQYHRLPLS | 0.59 0.37 0.38 0.31 0.43 0.31 | 0.40 | 1 of 18 (3.11) |
| KLQFGNLYESRNQNSVA | KASTRLQ | QQYHRLPLS | 0.58 0.57 0.61 1.01 0.79 0.75 | 0.72 | 0 of 18 |
| KCSQSVDYEDRNMNNVA | NASTRES | QDYHRLPLS | 1.00 0.57 0.53 0.42 0.26 0.53 | 0.55 | 2 of 18 (2.84) |
| KQQQSWDGESRNKNSVA | HASKRES | QQYHRLPLS | 0.34 1.00 0.61 0.81 0.68 1.01 | 0.74 | 0 of 18 |
| KSPFSVYYGERNKNSVA | QASTRES | QQYHRLPLS | 0.75 0.91 0.57 0.74 0.30 0.47 | 0.62 | 1 of 18 (2.18) |
| KVSQSVLVGDRNKSSVA | QASTREM | QQYHRLPLS | 0.67 1.09 0.68 0.46 0.64 0.62 | 0.69 | 0 of 18 |
| KLSQSVEYQSRDKNAVA | DAQTRMS | QQYHRLPLS | -0.09 -0.03 -0.25 -0.23 -0.30 0.01 | -0.15 | 2 of 18 (2.48) |
| KWEWSQLYESRNKNSVA | NASLRES | QQYHRLPLS | 0.16 -0.10 0.07 0.00 -0.03 0.21 | 0.05 | 1 of 18 (2.43) |
| KLSQSDGYEARNSNSVA | HASTRED | QQYHRLPLS | 0.19 0.11 -0.01 -0.08 0.05 0.26 | 0.09 | 2 of 18 (2.74) |
| KWSQSVPMGDRNKNSVA | SAHKRMS | QQYHRLPLS | 2.24 1.81 1.31 2.09 3.06 1.50 | 2.00 | 2 of 18 (2.63) |
| KFSQSVDYLSRNMNNVA | NASTRES | QDYHRLPLS | -0.02 -0.32 -0.15 -0.18 -0.33 0.04 | -0.16 | 1 of 18 (2.59) |
| KSDQEQLYENRMINSVA | DASLRES | QQYHRLPLS | 0.17 1.17 0.65 1.16 0.89 1.60 | 0.94 | 0 of 18 |
| KLSNSVWMESRNKNQVA | EASKREM | QQYHRLPLS | 0.23 -0.02 -0.15 -0.07 -0.10 0.13 | 0.00 | 3 of 18 (2.44) |

The authors averaged sequences with at least three values out of six and counted those with two or fewer as poor binders. The parent sequence was in this pool as ten entries: three were never detected, three once, and four in most replicates, with averages from 0.34 to 2.37. Empty control strains, which show no peptide, gave a signal in 4% of pairings with all light chain designs; the median was 2.64 and 95% of these signals were weaker than 1.59. No background was subtracted. Also given: how often the same scFv was detected with the empty control strains, with their mean in brackets.

Source: Li et al. 2023 (doi:10.1038/s41467-023-39022-2), MIT Lincoln Laboratory and A-Alpha Bio; data file from the FLAb repository.